{"source": "patent EP3838286B1", "about": "“ANTIMICROBIAL PEPTIDE FROM POLISTES GALLICUS VENOM AND ITS ANALOGS” (Latoxan, priority 2019, dated 2021)", "key": {"[1]": {"tested_on": "P. aeruginosa"}, "[2]": {"tested_on": "E. coli"}}}
{"molecule": "CC[C@H](C)[C@H](NC(=O)CN)C(=O)NCC(=O)N[C@@H](C)C(=O)N[C@H](C(=O)N[C@@H](CC(C)C)C(=O)N[C@@H](CCCCN)C(=O)N[C@H](C(=O)N[C@@H](CC(C)C)C(=O)N[C@H](C(=O)N[C@H](C(=O)NCC(=O)N[C@@H](CC(C)C)C(=O)N1CCC[C@H]1C(=O)N[C@@H](C)C(=O)N[C@@H](CC(C)C)C(=O)N[C@H](C(=O)N[C@@H](CO)C(=O)N[C@@H](Cc1c[nH]c2ccccc12)C(=O)N[C@H](C(=O)N[C@@H](CCCCN)C(=O)N[C@@H](CCCNC(=N)N)C(=O)N[C@@H](CCCCN)C(=O)N[C@@H](CCCNC(=N)N)C(=O)N[C@@H](CCC(N)=O)C(=O)N[C@@H](CCC(N)=O)C(N)=O)[C@@H](C)CC)[C@@H](C)CC)[C@@H](C)O)[C@@H](C)O)C(C)C)C(C)C", "note": "[Melittine, Melittin, reference compound]", "values": [{"measurement": "MIC (µM) P. aeruginosa", "setting": "[1]", "result": 6.25, "unit": "µM"}, {"measurement": "MIC (µM) E. coli", "setting": "[2]", "result": "6.25 to 12.5", "unit": "µM"}, {"measurement": "MIC against E. coli", "setting": "[2]", "result": 12.5, "unit": "µM"}]}
